Measured values reported in paper PMC5515408, “Sequence-specific DNA binding by MYC/MAX to low-affinity non-E-box motifs” (PLoS ONE, 2017).

Target: T1, six histidine (6his)-tagged full-length human MYC (p64) (human, UniProt P01106-1)
T1 construct: MYC (p64), human, UniProtKB P01106-1, full length; also called 6his-MYC; source: E. coli RosettaBlue(DE3)pLacI, purified
Assay: native gel or EMSA; purified recombinant proteins reconstituted into MYC:MAX or MAX:MAX complexes; the complexes were told apart by EMSA on labelled DNA probes (6% native polyacrylamide gel; 15 mM Tris-HCl pH 7.9, 100 mM KCl)
Details: both partners purified

binding result: binds
B1: six histidine (6his)-tagged full-length human MAX (p21) (natural protein)
chain: not shown
notes: MAX (p21), human, […], full length; source: E. coli, purified
